Literature values, collected in patent US20210353564A1, “TREATMENTS FOR ZIKA VIRUS INFECTION” (Saint Louis University, priority 2018, published 2021).
pIC50: −log10 of the molar value.

Sequences of proteins named here, by UniProt entry; tags and fusion partners are left off.
UniProt P11511, whole entry, species assumed: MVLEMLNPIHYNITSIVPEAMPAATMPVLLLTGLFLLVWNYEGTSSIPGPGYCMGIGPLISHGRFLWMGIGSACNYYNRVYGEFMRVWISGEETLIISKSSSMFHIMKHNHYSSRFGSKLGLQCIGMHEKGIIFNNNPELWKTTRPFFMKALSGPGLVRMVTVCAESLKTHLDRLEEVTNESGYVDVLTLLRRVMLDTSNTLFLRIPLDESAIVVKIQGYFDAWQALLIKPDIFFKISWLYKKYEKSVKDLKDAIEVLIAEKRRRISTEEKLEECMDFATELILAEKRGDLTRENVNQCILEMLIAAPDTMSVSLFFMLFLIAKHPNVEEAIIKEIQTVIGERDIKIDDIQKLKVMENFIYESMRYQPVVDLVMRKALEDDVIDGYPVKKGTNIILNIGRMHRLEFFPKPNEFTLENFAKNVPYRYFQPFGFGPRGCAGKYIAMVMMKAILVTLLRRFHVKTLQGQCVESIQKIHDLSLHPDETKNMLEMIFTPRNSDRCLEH

Molecular target: aromatase (Homo sapiens, UniProt P11511)
Details: read-out: aromatase inhibition IC50; cited from earlier work

In the case of `CCC(=C(c1ccc(O)cc1)c1ccc(OCCN)cc1)c1ccccc1` [Norendoxifen, N,N-didesmethyl-4-hydroxytamoxifen], the pIC50 is listed as 7.05.
